Only a part is listed here, and it is no random draw. Active and inactive are the calls of the source.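 How the source made its calls: active means inhibition above the campaign mean of all compounds plus 3 SD (cut at about 26% in these data); inactive means the rest.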

Sequences of proteins named here, by UniProt entry; tags and fusion partners are left off. A change or cut given only in a name is not applied to a line headed by its entry.
UniProt Q9Y570: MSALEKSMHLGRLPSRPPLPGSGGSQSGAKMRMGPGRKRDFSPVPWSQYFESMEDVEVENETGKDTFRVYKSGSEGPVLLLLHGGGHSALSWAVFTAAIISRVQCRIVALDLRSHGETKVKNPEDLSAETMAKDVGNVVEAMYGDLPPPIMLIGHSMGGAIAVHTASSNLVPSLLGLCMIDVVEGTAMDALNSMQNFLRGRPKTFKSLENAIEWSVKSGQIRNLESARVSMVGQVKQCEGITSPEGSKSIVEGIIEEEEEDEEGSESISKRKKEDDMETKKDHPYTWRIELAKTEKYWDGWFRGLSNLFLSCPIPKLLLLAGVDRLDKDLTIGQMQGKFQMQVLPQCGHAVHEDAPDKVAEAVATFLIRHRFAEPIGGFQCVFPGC

One may read the inhibition as the relative decrease from the control value, in per cent.

This experiment concerns the target Protein phosphatase methylesterase 1 (Homo sapiens) (UniProt Q9Y570). The experiment in a line: PME-1 inhibitors via competitive probe labeling, primary screen, biochemical, fluorescence polarization, FP-Rh probe, HTS (AID 2130).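 Further: competitive labeling of PME-1 active site by serine hydrolase directed probe; 0% = PME-1 with DMSO and 100% = wells lacking PME-1 enzyme; inhibitors block probe labeling so polarization falls and inhibition rises.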 Conditions: recombinant PME-1, FP-Rh probe fluorescence polarization; at 5.9 µM; active compounds read high. In general terms: Polarisation of emitted light reports the rotation of a fluorescent probe.
Regarding `CC(=O)Nc1ccc(Oc2c([N+](=O)[O-])cc([N+](=O)[O-])cc2[N+](=O)[O-])cc1`, the inhibition was inactive: 3.14%.

Consider `CC(=O)Nc1ccc([As](=O)(O)O)c(O)c1`, for which the inhibition is inactive: -4.91%.

As for `C[C@@H]1C=CCP(=O)(Oc2ccccc2)O1` (stereo partly specified), the inhibition is inactive: 5.15%.

With `C[C@H]1OP(=O)(Oc2ccccc2)C[C@@H]2O[C@@H]21` (stereo partly specified), the inhibition was inactive: 2.93%.

As for `Cc1ccccc1CN(C)C(=O)COC(=O)C(O)(c1ccccc1)c1ccccc1`, the inhibition was inactive: 2.4%.

Regarding `CC(=O)c1ccc(N2CC2c2ccncc2)cc1` (stereo unspecified), the inhibition is inactive: -8.05%.

For `CC(C)(C)C(=O)NC(Sc1ccccc1)C(Cl)(Cl)Cl` (stereo unspecified), the inhibition was inactive: -7.42%.

Consider `CCOc1ccc(C2=NCC(CBr)S2)cc1` (stereo unspecified), for which the inhibition is inactive: 5.58%.

For `O=P1(Nc2nc3ccc(Cl)cc3s2)COc2ccccc2O1` (stereo unspecified), the inhibition was inactive: -3.27%.

Regarding `CN(C)C(=O)Oc1noc2ccccc12`, the inhibition is inactive: -4.84%.

For `Cc1ccccc1OP(=O)(Nc1ccccn1)Oc1ccccc1C`, the inhibition was inactive: 4.41%.

As to `CCC(=O)N1C2C3N(C(=O)CC)C1C1N(C(=O)CC)C(C(N1C(=O)CC)N3C(=O)CC)N2C(=O)CC`, the inhibition was inactive: -3.26%.

Consider `O=C(OC1CN2CCC1CC2)c1ccccc1` (stereo unspecified), for which the inhibition is inactive: -8.27%.

For the compound `CC(=O)NC(SC(=S)N(CC(C)C)CC(C)C)C(Cl)(Cl)Cl` (stereo unspecified), the inhibition is inactive: 6.83%.

On to `Cc1ccc(OP(=O)(Nc2ccccn2)Oc2ccc(C)cc2)cc1`, for which the inhibition is inactive: 2.26%.

Turning to `COC(=O)c1cc2c(s1)N=C(c1ccccc1)N(C)P2(=O)N1CCOCC1` (stereo unspecified), the inhibition is inactive: -8.83%.

On to `Cc1ccc(NP(=O)(Oc2cccc(C)c2)Oc2cccc(C)c2)nc1`, for which the inhibition was inactive: -3.19%.

Regarding `CCOC(=O)NC(Sc1ccccc1)C(Cl)(Cl)Cl` (stereo unspecified), the inhibition was inactive: 2.6%.

As for `c1ccc(-c2nn[nH]n2)c(-c2nn[nH]n2)c1`, the inhibition is inactive: 4.92%.

For the compound `CCNC(=S)/N=C(\N)N[N+](=O)[O-]`, the inhibition was inactive: -3.22%.

In the case of `O=C(OC1CN2CCC1CC2)c1cccc(Cl)c1` (stereo unspecified), the inhibition was inactive: -9.38%.

Consider `Nc1ccc([As](=O)(O)c2ccc([N+](=O)[O-])cc2)cc1`, for which the inhibition is inactive: 3.95%.

Take `C(Cc1nn[nH]n1)Cc1nn[nH]n1`: the inhibition is inactive: -3.6%.

On to `O=[As](O)(c1ccccc1)c1ccc(O)cc1`, for which the inhibition is inactive: 8.48%.

As for `O=[N+]([O-])c1ccc(O)c(/C=N/Nc2ccc([N+](=O)[O-])cc2[N+](=O)[O-])c1`, the inhibition is inactive: 14.1%.

As for `CC(=O)NC(SC(=S)N(C)C)C(Cl)(Cl)Cl` (stereo unspecified), the inhibition is inactive: -5.91%.

As for `O=[N+]([O-])c1ncn(CCn2cnc([N+](=O)[O-])n2)n1`, the inhibition was inactive: -4.68%.

Consider `C[C@H]1OP(=O)(Oc2ccccc2)[C@H](O)[C@H](O)[C@H]1N=[N+]=[N-]` (stereo partly specified), for which the inhibition was inactive: 4.85%.

In the case of `O=P(Nc1nc2ccccc2s1)(c1ccccc1)c1ccccc1`, the inhibition was inactive: 9.15%.

`O=P(Nc1ccccn1)(c1ccc(Br)cc1)c1ccc(Br)cc1`: the inhibition is inactive: -2.63%.

For `CN(C)C1(CNC(=O)c2ccc(Cl)c(S(N)(=O)=O)c2)CCCCC1`, the inhibition was inactive: 7.9%.

For `c1nnnn1CCn1cnnn1`, the inhibition was inactive: -7.27%.

In the case of `CC(C)C(=O)NC(Sc1ccccc1)C(Cl)(Cl)Cl` (stereo unspecified), the inhibition was inactive: 1.49%.

Turning to `O=P(Nc1nccs1)(c1ccccc1)c1ccccc1`, the inhibition is inactive: 7.34%.

For the compound `CC1CCN(C(=O)Oc2c(Cl)cc(Cl)c3cccnc23)CC1`, the inhibition was inactive: -3.24%.

Consider `CN(C)C(=O)OCCc1n(C)cc[n+]1C`, for which the inhibition was inactive: 0.81%.

`CC(C)=N/N=C(\N)N[N+](=O)[O-]`: the inhibition was inactive: -1.95%.

`CCN(/C(=N/P(=O)(N1CCOCC1)N1CCOCC1)N1CCOCC1)c1ccc(OC)cc1`: the inhibition is inactive: 1.52%.

As to `C[N+]1=C2C=CC=CC=C2SC12C([N+](=O)[O-])=CC([N+](=O)[O-])=C[C-]2[N+](=O)[O-]` (stereo unspecified), the inhibition is inactive: 17.4%.

In the case of `Nc1ccc([As](=O)(O)c2ccc(N)cc2)cc1`, the inhibition is inactive: -3.36%.

For `CCc1nc2c(n1)c1c(non1O)c1c2no[n+]1[O-]`, the inhibition is inactive: 22%.

Regarding `O=[N+]([O-])c1cc([N+](=O)[O-])c(CCNc2ccccc2)c([N+](=O)[O-])c1`, the inhibition is active: 31.6%.

Consider `Cc1ccc(NP(=O)(Oc2ccccc2)Oc2ccccc2)nc1`, for which the inhibition is inactive: -3.93%.

As to `O=[N+]([O-])c1cccc2n[nH]nc12`, the inhibition was inactive: -1.05%.

Take `CC(=O)N1C2C3N(C(C)=O)C1C1N(C(C)=O)C(C(N1C(C)=O)N3C(C)=O)N2C(C)=O`: the inhibition was inactive: -5.21%.

As to `COc1ccc(C2=NCC(CBr)S2)cc1` (stereo unspecified), the inhibition was inactive: -1.43%.

As to `O=[N+]([O-])c1cccc(NC2=NCC(CBr)S2)c1` (stereo unspecified), the inhibition was inactive: 6.81%.

Regarding `O=[N+]([O-])c1ncn(CCn2ncnc2[N+](=O)[O-])n1`, the inhibition is inactive: -3.95%.

Regarding `CC(C)(C)C(=O)NC(Sc1ccncn1)C(Cl)(Cl)Cl` (stereo unspecified), the inhibition is inactive: 2.9%.

For `O=C(Nc1cc([As](=O)(O)O)ccc1O)c1ccccc1`, the inhibition is inactive: 5.97%.

Consider `CCN(N=Nc1nonc1N)c1nonc1N`, for which the inhibition is inactive: -2.18%.

For `O=[N+]([O-])c1cc([N+](=O)[O-])c(CCN2CCOCC2)c([N+](=O)[O-])c1`, the inhibition is active: 59.4%.

Turning to `Cc1ccc(NP(=O)(Oc2ccccc2F)Oc2ccccc2F)nc1`, the inhibition is inactive: 0.74%.

As for `CN(C(=O)Cc1ccc(Cl)c(Cl)c1)[C@H]1CCCC[C@@H]1N1CCCC1`, the inhibition is inactive: -8.94%.

Consider `CCOP(=O)(Nc1ccccc1)OCC`, for which the inhibition was inactive: 2.55%.

As for `Cc1cc(SC(NC(=O)c2ccc(F)cc2)C(Cl)(Cl)Cl)ncn1` (stereo unspecified), the inhibition was inactive: 3.26%.

As to `O=P(Nc1nc2ccc(Cl)cc2s1)(c1ccccc1)c1ccccc1`, the inhibition was inactive: 7.59%.

As to `O=C(O)c1ccccc1[As](=O)(O)O`, the inhibition was inactive: 0.43%.

Regarding `CC(=O)Nc1ccc([As](=O)(O)O)cc1`, the inhibition was inactive: -5.46%.

On to `Cc1c2non([O-])c-2c(C)[n+](=O)[n+]1[O-]`, for which the inhibition was inactive: -6.58%.

Take `O=C(NC(Sc1ccncn1)C(Cl)(Cl)Cl)c1ccccc1` (stereo unspecified): the inhibition is inactive: -2.37%.

As to `Oc1ccccc1CNc1ccccn1`, the inhibition is inactive: -4.25%.

For the compound `CC(C)CC(=O)NC(Sc1ccc(Cl)cc1)C(Cl)(Cl)Cl` (stereo unspecified), the inhibition was inactive: -2.11%.

With `Nc1cc(N)c2nonc2c1[N+](=O)[O-]`, the inhibition was inactive: -0.17%.

For `Clc1ccc(Cl)c(NC2=NCC(CBr)S2)c1` (stereo unspecified), the inhibition was inactive: -7.15%.

Regarding `CN1CCCC(OC(=O)C(c2ccccc2)c2ccccc2)C1` (stereo unspecified), the inhibition is inactive: 1.89%.

For `Cc1ccc(OP(=O)(Nc2nccs2)Oc2ccc(C)cc2)cc1`, the inhibition is inactive: 2.47%.

For the compound `COc1ccccc1OP(=O)(Nc1ccc(C)cn1)Oc1ccccc1OC`, the inhibition was inactive: -0.19%.

For `Cc1ccc(N/C(=N/P(=O)(N2CCOCC2)N2CCOCC2)N2CCOCC2)cc1`, the inhibition was inactive: -0.24%.

As to `CN(C(=O)Cc1ccc(Cl)c(Cl)c1)[C@H]1CCCC[C@H]1N1CCCC1`, the inhibition is inactive: -0.19%.

As for `NC(=O)c1cc([N+](=O)[O-])cc([N+](=O)[O-])c1N`, the inhibition is inactive: 2.93%.

Regarding `COc1ccc(N/C(=N/P(=O)(N2CCOCC2)N2CCOCC2)N2CCOCC2)cc1`, the inhibition is inactive: 1.42%.

`COc1cc(I)ccc1[As](=O)(O)O`: the inhibition is inactive: -1.48%.

In the case of `COc1ccc2nc(NP(=O)(c3ccccc3)c3ccccc3)sc2c1`, the inhibition was inactive: -1.76%.

In the case of `Cc1c2c(nc3ccccc13)SC(C(Cl)Cl)C2` (stereo unspecified), the inhibition was inactive: -2.59%.

With `Cc1cc(=O)[nH]c(N[N+](=O)[O-])n1`, the inhibition is inactive: 3.16%.

Consider `O=C(OC1CN2CCC1CC2)C12CC3CC(CC(C3)C1)C2` (stereo unspecified), for which the inhibition was inactive: 1.6%.

`O=[N+]([O-])c1cc([N+](=O)[O-])c(-c2ccn[nH]2)s1`: the inhibition is inactive: -5.63%.

For the compound `CCN(CC)C(=S)SC(NC=O)C(Cl)(Cl)Cl` (stereo unspecified), the inhibition is inactive: 0.92%.

`CC(C)NC(=O)NP(=O)(Oc1ccccc1)Oc1ccccc1`: the inhibition is inactive: 7.61%.

Take `ClCCSc1nnc(-c2cccnc2)o1`: the inhibition was inactive: -4.25%.

In the case of `CC(C)c1ccc(OP(=O)(Nc2ccccn2)Oc2ccccc2F)cc1` (stereo unspecified), the inhibition is inactive: 1.88%.

Take `Cc1ccc(OP(=O)(Nc2ccc([N+](=O)[O-])cn2)Oc2ccc(C)cc2)cc1`: the inhibition was inactive: 4.28%.

In the case of `Cc1ccc2nc3c(c(C)c2c1)CC(C(Cl)Cl)S3` (stereo unspecified), the inhibition was inactive: 6.9%.

Consider `COc1cc(C(=O)NCC2(N3CCOCC3)CCCCC2)ccc1OCC(C)C`, for which the inhibition is inactive: 0.14%.

Take `C[As](=O)(O)c1cccc(C(=O)O)c1`: the inhibition was inactive: -1.6%.

With `O=[As](O)(c1ccc(O)cc1)c1ccccc1O`, the inhibition was inactive: -2.98%.

`O=P(Nc1ccccn1)(c1cccc2ccccc12)c1cccc2ccccc12`: the inhibition is inactive: 2.21%.

Take `Cc1cc(SC(NC=O)C(Cl)(Cl)Cl)ncn1` (stereo unspecified): the inhibition was inactive: 0.42%.

As for `CCOC(=O)Nc1cccc([As](=O)(O)O)c1`, the inhibition is inactive: -3.62%.

Take `Cc1cc(SC(NC(=O)c2ccccc2)C(Cl)(Cl)Cl)nc(C(C)C)n1` (stereo unspecified): the inhibition was inactive: -1.45%.

Take `CCOC(=O)Nc1ccc([As](=O)(O)O)c(O)c1`: the inhibition is inactive: 5.21%.

`CCC(C)N(CC(C)C)C(=S)SC(NC(C)=O)C(Cl)(Cl)Cl` (stereo unspecified): the inhibition is inactive: 2.39%.

Turning to `O=C(OC1CN2CCC1CC2)c1cccc([N+](=O)[O-])c1` (stereo unspecified), the inhibition is inactive: -1.86%.

Consider `CCOC(=O)c1ccc(NC(=O)C(C)(CCl)SC)cc1` (stereo unspecified), for which the inhibition is inactive: -1.99%.

`O=C(Nc1ccncc1[N+](=O)[O-])c1ccc([N+](=O)[O-])cc1[N+](=O)[O-]`: the inhibition was inactive: 4.04%.

On to `O=C(COc1ccccc1)OC1CN2CCC1CC2` (stereo unspecified), for which the inhibition was inactive: -6%.

For `COP1(=S)c2c(C)nn(CCC#N)c2N=C(c2ccc(F)cc2)N1C` (stereo unspecified), the inhibition was inactive: -4.44%.

With `CC(C)/C=N\N=C(\N)N[N+](=O)[O-]`, the inhibition is inactive: 0.23%.

`CN(C(=O)Cc1ccc(Cl)c(Cl)c1)[C@@H]1CCCC[C@H]1N1CCCC1`: the inhibition was inactive: 2.4%.

As to `CC1(CBr)Cn2c(nc3ccccc3c2=O)S1` (stereo unspecified), the inhibition was inactive: -3.43%.
